Tests used:
[1] = target: soluble human BACE1 catalytic domain (Homo sapiens (Human), UniProt P56817); assay: BACE1 HTRF FRET Assay; conditions: read-out: BACE 1 Ki; Ki calculated from IC50 using the Cheng-Prusoff equation; QSY7-APPswe-Eu substrate, pH 5.0
Excerpt: Na^+-Acetate pH 5.0; 1% Brij-35; Glycerol; Dimethyl Sulfoxide (DMSO); Recombinant human soluble BACE1 catalytic domain (>95% pure); APP Swedish mutant peptide substrate (QSY7-APP^swe-Eu): QSY7-EISEVNLDAEFC-Europium-amide.
A homogeneous time-resolved FRET assay can be used to determine IC50 values for inhibitors of the soluble human BACE1 catalytic domain. This assay monitors the increase of 620 nm fluorescence that resulted from BACE1 cleavage of an APPswedish APP^swe mutant peptide FRET substrate (QSY7-EISEVNLDAEFC-Europium-amide). This substrate contains an N-terminal QSY7 moiety that serves as a quencher of the C-terminal Europium fluorophore (620 nm Em). In the absence of enzyme activity, 620 nm fluorescence is low in the assay and increased linearly over 3 hours in the presence of uninhibited BACE1 enzyme Inhibition of BACE1 cleavage of the QSY7-APP^swe-Eu substrate by inhibitors is manifested as a suppression of 620 nm fluorescence.
Varying concentrations of inhibitors at 3× the final desired concentration in a volume of 10 ul are preincubated with purified human BACE1 catalytic domain (3 nM in 10 μl) for 30 minutes at 30° C. in reaction buffer containing 20 mM Na-Acetate pH 5.0, 10% glycerol, 0.1% Brij-35 and 7.5% DSMO. Reactions are initiated by addition of 10 μl of 600 nM QSY7-APP^swe-Eu substrate (200 nM final) to give a final reaction volume of 30 μl in a 384 well Nunc HTRF plate. The reactions are incubated at 30° C. for 1.5 hours. The 620 nm fluorescence is then read on a Rubystar HTRF plate reader (BMG Labtechnologies) using a 50 millisecond delay followed by a 400 millisecond acquisition time window Inhibitor IC50 values are derived from non-linear regression analysis of concentration response curves. Ki values are then calculated from IC50 values using the Cheng-Prusoff equation using a previously determined […] of 8 μM for the QSY7-APP^swe-Eu substrate at BACE1.

Protein sequences, listed by entry. Tags and fused reporters are not part of them. Residues count along the entry.
UniProt P56817, 75-416 limits assumed: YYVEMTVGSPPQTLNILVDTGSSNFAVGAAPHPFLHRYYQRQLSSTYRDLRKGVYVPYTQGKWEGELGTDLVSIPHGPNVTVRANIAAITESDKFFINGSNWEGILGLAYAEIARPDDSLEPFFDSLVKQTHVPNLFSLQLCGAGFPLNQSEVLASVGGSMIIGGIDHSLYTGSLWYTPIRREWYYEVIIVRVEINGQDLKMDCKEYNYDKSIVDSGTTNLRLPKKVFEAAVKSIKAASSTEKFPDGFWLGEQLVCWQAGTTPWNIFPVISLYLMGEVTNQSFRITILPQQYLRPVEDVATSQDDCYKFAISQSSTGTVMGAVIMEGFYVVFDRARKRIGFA
UniProt Q9Y5Z0, 63-518 limits assumed: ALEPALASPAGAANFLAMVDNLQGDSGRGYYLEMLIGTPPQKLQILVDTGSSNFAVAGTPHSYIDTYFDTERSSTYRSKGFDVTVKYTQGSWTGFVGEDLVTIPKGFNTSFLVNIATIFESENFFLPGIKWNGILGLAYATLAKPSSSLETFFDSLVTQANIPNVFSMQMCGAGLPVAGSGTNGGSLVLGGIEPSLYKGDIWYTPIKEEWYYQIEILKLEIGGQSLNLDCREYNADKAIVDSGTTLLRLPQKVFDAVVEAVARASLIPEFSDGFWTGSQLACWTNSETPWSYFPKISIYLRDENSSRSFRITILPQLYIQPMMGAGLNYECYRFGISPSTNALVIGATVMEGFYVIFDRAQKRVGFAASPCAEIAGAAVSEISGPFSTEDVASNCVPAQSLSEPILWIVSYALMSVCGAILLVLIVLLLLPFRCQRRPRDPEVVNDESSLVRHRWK

[2] = target: purified human autoBACE-2 (Homo sapiens, UniProt Q9Y5Z0); assay: BACE-2 Assay (BACE-HTRF assay); type: biochemical; conditions: read-out: BACE 2 Ki; Ki calculated from IC50 using the Cheng-Prusoff equation; QSY7-EISEVNLDAEFC-Eu-amide substrate, pH 5.0

| Compound | Ki [1] [nM] | Ki [2] [nM] |
| --- | --- | --- |
| CC1(C)C(=N)N[C@](C)(c2cc(NC(=O)c3ccc(Cl)cn3)ccc2F)C[S@@]1(=O)=NCC1CC1 | 4 | 3 |
| CN=[S@]1(=O)C[C@@](C)(c2cc(NC(=O)c3ccc(Cl)cn3)ccc2F)NC(=N)C1(C)C | 8 | 3 |
| CN=[S@]1(=O)C[C@@](C)(c2cc(NC(=O)c3ccc(F)cn3)ccc2F)NC(=N)C1(C)C | 21 | 6 |
| CCN=[S@@]1(=O)C[C@@](C)(c2cc(NC(=O)c3ccc(F)cn3)ccc2F)NC(=N)C1(C)C | 17 | 3 |
| CN=[S@@]1(=O)C[C@@](C)(c2cc(NC(=O)c3cnc(OC)cn3)ccc2F)NC(=N)C1(C)C | 14 | 32 |
| CCN=[S@]1(=O)C[C@@](C)(c2cc(NC(=O)c3ccc(Cl)cn3)ccc2F)NC(=N)C1(C)C | 7 | 5 |
| CCN=[S@@]1(=O)C[C@@](C)(c2cc(NC(=O)c3ccc(C#N)cn3)ccc2F)NC(=N)C1(C)C | 4 | 5 |
| CC1(C)C(=N)N[C@](C)(c2cc(NC(=O)c3ccc(Cl)cn3)ccc2F)C[S@@]1(=O)=NCCF | 3 | 1 |
| CN=[S@@]1(=O)C[C@@](C)(c2cc(NC(=O)c3ccc(Cl)cn3)ccc2F)NC(=N)C1(C)C | 3 | 1 |
| CN=[S@@]1(=O)C[C@@](C)(c2cc(NC(=O)c3ccc(F)cn3)ccc2F)NC(=N)C1(C)C | 10 | 2 |
| COCCN=[S@]1(=O)C[C@@](C)(c2cc(NC(=O)c3ccc(Cl)cn3)ccc2F)NC(=N)C1(C)C | 3 | 1 |
| CN=[S@]1(=O)C[C@@](C)(c2cc(NC(=O)COC)ccc2F)NC(=N)C1(C)C | 167 | 10 |
| COCCN=[S@@]1(=O)C[C@@](C)(c2cc(NC(=O)c3ccc(Cl)cn3)ccc2F)NC(=N)C1(C)C | 4 | 2 |
| CC1(C)C(=N)N[C@](C)(c2cc(NC(=O)c3ccc(Cl)cn3)ccc2F)C[S@]1(=O)=NCCF | 3 | 2 |
| CC1(C)C(=N)N[C@](C)(c2cc(NC(=O)c3ccc(Cl)cn3)ccc2F)C[S@]1(=O)=NCC1CC1 | 3 | 1 |
| CN=[S@@]1(=O)C[C@@](C)(c2cc(NC(=O)COC)ccc2F)NC(=N)C1(C)C | 228 | 36 |
| CN=[S@]1(=O)C[C@@](C)(c2cc(NC(=O)c3cnc(OC)cn3)ccc2F)NC(=N)C1(C)C | 6 | 12 |
| CCN=[S@@]1(=O)C[C@@](C)(c2cc(NC(=O)c3ccc(Cl)cn3)ccc2F)NC(=N)C1(C)C | 4 | 1 |
| CN=[S@@]1(=O)C[C@@](C)(c2cc(NC(=O)c3ccc(OC)cn3)ccc2F)NC(=N)C1(C)C | 11 | 5 |
